Test results published in article PMC12482674 (Alzheimer's Research & Therapy, 2025).

Chains of the proteins cited; added tags and fusions are not shown. Residues count along the entry.
UniProt P10636, 1-352 isoform P10636-2 C233S: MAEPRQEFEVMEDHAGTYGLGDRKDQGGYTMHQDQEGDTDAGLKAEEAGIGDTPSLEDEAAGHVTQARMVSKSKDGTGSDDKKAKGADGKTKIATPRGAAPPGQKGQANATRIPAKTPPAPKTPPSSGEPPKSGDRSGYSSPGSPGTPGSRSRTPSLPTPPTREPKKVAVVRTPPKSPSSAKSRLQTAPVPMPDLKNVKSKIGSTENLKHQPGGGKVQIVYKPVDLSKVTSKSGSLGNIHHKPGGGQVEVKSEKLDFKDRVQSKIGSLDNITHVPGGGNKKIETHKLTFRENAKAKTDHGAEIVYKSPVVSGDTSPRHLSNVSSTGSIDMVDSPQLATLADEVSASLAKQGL

Molecular target: AD brain-derived tau seeds (Homo sapiens, UniProt P10636, C639S)
Format: biochemical

- maximum thioflavin fluorescence (ThT Max): complete inhibitory effect
- time to threshold (TTT): complete inhibitory effect
SMILES: COc1cccc2c1C(=O)c1c(O)c3c(c(O)c1C2=O)C[C@@](O)(C(=O)CO)C[C@@H]3O[C@H]1C[C@H](N)[C@@H](O)[C@H](C)O1 [Epirubicin]
